The term IC50 denotes the point on the concentration scale where inhibition reaches its midpoint. Read a high IC50 as lower potency.

Assay [1] addresses T1, NAD-dependent protein deacetylase sirtuin-1 (Homo sapiens, UniProt Q96EB6).
T1 sequence (Q96EB6 whole entry): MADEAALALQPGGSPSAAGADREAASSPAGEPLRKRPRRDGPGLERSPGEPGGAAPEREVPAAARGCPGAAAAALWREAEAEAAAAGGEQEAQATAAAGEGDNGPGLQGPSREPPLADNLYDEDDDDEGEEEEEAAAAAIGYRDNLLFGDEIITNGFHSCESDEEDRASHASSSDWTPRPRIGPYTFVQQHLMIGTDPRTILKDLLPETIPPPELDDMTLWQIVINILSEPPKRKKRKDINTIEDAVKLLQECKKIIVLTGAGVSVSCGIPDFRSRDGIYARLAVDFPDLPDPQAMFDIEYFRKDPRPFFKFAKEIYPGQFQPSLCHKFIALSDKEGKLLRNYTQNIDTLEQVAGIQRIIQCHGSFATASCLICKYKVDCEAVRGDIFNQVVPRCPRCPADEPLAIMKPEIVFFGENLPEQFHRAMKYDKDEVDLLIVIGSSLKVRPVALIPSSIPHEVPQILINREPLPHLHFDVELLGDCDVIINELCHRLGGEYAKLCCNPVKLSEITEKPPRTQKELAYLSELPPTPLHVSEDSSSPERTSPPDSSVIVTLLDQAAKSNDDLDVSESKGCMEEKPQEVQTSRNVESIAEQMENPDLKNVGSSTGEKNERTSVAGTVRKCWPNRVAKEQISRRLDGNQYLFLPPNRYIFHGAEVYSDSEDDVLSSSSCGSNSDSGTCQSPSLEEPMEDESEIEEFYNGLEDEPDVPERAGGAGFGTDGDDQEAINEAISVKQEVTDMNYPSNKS

The target of assay [2] is T1, NAD-dependent protein deacetylase sirtuin-1. This is another data set of the same source.

Regarding `NC(=O)C1CCCc2c1[nH]c1ccccc21` (configuration not stated), the concentration for half-maximal inhibition (IC50) in assay [1] was determined as 1470 nM; in assay [2] it was 3.3 µM.

These data come from ChEMBL document CHEMBL1140425, “Discovery of indoles as potent and selective inhibitors of the deacetylase SIRT1” (J Med Chem, 2005).
